From patent publication US20170067882A1

Sequences of proteins named here, by UniProt entry; tags and fusion partners are left off. Residues count along the entry.
UniProt Q13477, 19-317: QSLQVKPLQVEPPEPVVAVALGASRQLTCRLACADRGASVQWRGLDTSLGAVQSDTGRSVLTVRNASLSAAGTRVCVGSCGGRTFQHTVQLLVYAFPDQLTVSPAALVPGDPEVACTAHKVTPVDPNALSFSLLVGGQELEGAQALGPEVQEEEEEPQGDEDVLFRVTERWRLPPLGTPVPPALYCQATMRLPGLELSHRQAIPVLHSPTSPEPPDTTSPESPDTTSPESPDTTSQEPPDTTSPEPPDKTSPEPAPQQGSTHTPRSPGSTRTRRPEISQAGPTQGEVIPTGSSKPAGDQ
UniProt Q13477, 19-382: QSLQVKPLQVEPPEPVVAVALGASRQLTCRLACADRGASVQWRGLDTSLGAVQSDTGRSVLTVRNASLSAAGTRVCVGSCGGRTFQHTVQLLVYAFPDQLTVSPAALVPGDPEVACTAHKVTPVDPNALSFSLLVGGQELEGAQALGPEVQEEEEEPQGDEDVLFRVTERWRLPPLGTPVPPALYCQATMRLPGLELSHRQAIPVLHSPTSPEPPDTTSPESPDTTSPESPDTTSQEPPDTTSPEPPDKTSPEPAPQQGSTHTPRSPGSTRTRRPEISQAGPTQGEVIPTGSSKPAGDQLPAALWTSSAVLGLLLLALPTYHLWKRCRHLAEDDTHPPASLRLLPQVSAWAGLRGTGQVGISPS

Tests used:
[1] = target: endogenous, shed, soluble MAdCAM in normal human serum (human) (UniProt Q13477); test: BSI, 10% normal human serum, soluble target 100 pM
[2] = target: endogenous, shed, soluble MAdCAM in normal human serum (human) (UniProt Q13477); test: BSI, 25% normal human serum, soluble target 250 pM
[3] = target: endogenous, shed, soluble MAdCAM in normal human serum (human) (UniProt Q13477); test: BSI, 35% normal human serum, soluble target 350 pM
[4] = target: endogenous, shed, soluble MAdCAM in normal human serum (human) (UniProt Q13477); test: BSI, 50% normal human serum, soluble target 500 pM
[5] = target: endogenous membrane-bound MAdCAM in human IBD colon tissue vesicles (human) (UniProt Q13477); test: BSI, human colon vesicles (VRH) in PBS against soluble hMAdCAM
[6] = target: endogenous, shed, soluble MAdCAM in normal human serum (human) (UniProt Q13477); test: BSI, free solution, 0.1% normal human serum pool; target at 1 pM
[7] = target: full length hMAdCAM stably expressed in CHO cells (vesicle preparation) (human) (UniProt Q13477); test: BSI, CHO-MAdCAM vesicles in PBS against soluble MAdCAM in 0.1% serum
[8] = target: Soluble human MAdCAM-IgG1 Fc fusion protein (human) (UniProt Q13477); test: BSI, free solution, both partners untethered in buffer; target at 10 pM
[9] = target: endogenous membrane-bound MAdCAM in human IBD colon tissue vesicles (human) (UniProt Q13477); test: BSI, human IBD colon vesicle preparation (VRH) in PBS; anti-IL6 mAb as reference
[10] = target: full length hMAdCAM stably expressed in CHO cells (vesicle preparation) (human) (UniProt Q13477); test: BSI, CHO-rhMAdCAM vesicles in PBS; target at 34 pM; wild type vesicles as reference
[11] = target: endogenous, shed, soluble MAdCAM in normal human serum (human) (UniProt Q13477); test: linear extrapolation of the BSI apparent Kd values against serum MAdCAM concentration
[12] = target: endogenous membrane-bound MAdCAM in human IBD colon tissue vesicles (human) (UniProt Q13477); test: BSI, human colon tissue vesicles bathed in 25% interstitial-like homogenate (holds 11 pM soluble MAdCAM); ensemble Kd
[13] = target: endogenous membrane-bound MAdCAM in human IBD colon tissue vesicles (human) (UniProt Q13477); test: BSI, human colon tissue vesicles bathed in 87.5% interstitial-like homogenate (holds 39 pM soluble MAdCAM); ensemble Kd

- Apparent Kd [1]: 30 pM
- Apparent Kd [2]: 110 pM
- Apparent Kd [3]: 174 pM
- Apparent Kd [4]: 285 pM
- fold decrease in binding affinity compared to soluble hMAdCAM [5]: 20 fold
- Kd [6]: 7.5 pM
- fold change of Kd against the true Kd measured in 0.1% serum [7]: 20 fold
- Kd [8]: 7.1 pM
- Kd [9]: 155 pM
- Kd [10]: 134 pM
- estimated apparent Kd extrapolated to 100% serum [11]: 598 pM
- Kd [12]: 262 pM
- Kd [13]: 360 pM
Substance: PF-00547659, a fully human anti-MAdCAM IgG2 monoclonal antibody
